CCT modulator: cytosolic chaperonin activity modulation; activity change, % (no concentration beside the values), hits read low; hit rate 0.3% among 360,000; purified chaperonin ATPase assay, HTRF ADP detection, 30 min; in the data active = activity change below about -30%; note: % is set by controls: 0 for no effect and ±100 for the full control effect
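ATPase activity: ADP formed was measured by HTRF Transcreener (665/615 nm ratio) after 30 min at 37 deg C with 10 uM ATP. Compounds screened at one 76 uM concentration against 40 or 20 nM TRiC in Tris pH 7.4/KCl/MgCl2/DTT buffer.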
Mm-Cpn inhibitor: inhibitors of Methanococcus maripaludis chaperonin TRiC (MmCpn) | purified Mm-Cpn ATPase, ADP Transcreener TR-FRET | Potency, µM (titrated, usually from 76.9 µM), for the others: top-dose activity, negative = inhibition, actives largely listed as inhibitors | hit rate 0.031% among 330,000 | AID 504842; active = well fitted curve in the direction sought with a large enough effect; inconclusive = small, poorly fitted or top-dose-only effect, or another doubt; inactive = no such curve, though single readings can be large; an effect the other way counts as inactive or inconclusive; note: potency is the fitted concentration of half-maximal effect; % is set by controls: 0 for no effect and ±100 for the full control effect; nearly all actives have a fitted effect of over 80% in size
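ATP (10 uM final) was added to archaeal chaperonin (25 nM final) after 10 min exposure to test compound at 37°C; after 30 min further incubation, ADP was detected by competitive TR-FRET.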
Rango release inh: inhibitors of RanGTP-induced Rango-importin beta complex dissociation. Potency, µM (series often up to 46.1 µM), without a hit: top-dose activity change, negative = inhibition. AID 540253. hit rate 0.071% among 340,000. Biochemical FRET Rango-importin beta, RanGTP-induced dissociation; note: potency is the fitted concentration of half-maximal effect; % of control where 0% means no effect; nearly all actives have a fitted effect of over 45% in size
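Recombinant Rango FRET biosensor (EYFP–snurportin 1 IBB–cerulean CFP10) at 0.1 uM premixed with 0.25 uM importin beta in PBS, 1 mM DTT, 0.02% Tween-20, 0.1% BSA. Compound added 5 min; RanGTP-RCC1 (0.6 uM Ran, 2 mM GTP, 0.2 uM RCC1) then triggers release, read at 45 min.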
a7 integrin act: integrin-mediated muscular dystrophy alleviation activation; Potency, µM (titrated, usually from 38.3 µM), inactives show top-dose activation, hits mostly activators; alpha7betagal myoblasts, beta-gal FDG fluorescence, 48 h; hit rate 0.064% among 350,000; active = well fitted curve in the direction sought with a large enough effect; inconclusive = small, poorly fitted or top-dose-only effect, or another doubt; inactive = no such curve, though single readings can be large; an effect the other way counts as inactive or inconclusive;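 note: potency is the fitted concentration of half-maximal effect; 100% = response of the positive control SU9516; nearly all actives have a fitted effect of over 60% in size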
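Alpha7betagal+/- myoblasts (passage 13) were plated 16-24 hr, then exposed to compounds (1:260 dilution of DMSO stock) for 48 hours at 37C. After MPER lysis, β-galactosidase reporter activity was read as FDG fluorescence (ex 480/em 540) after 30 minutes.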
Rango-impB inh: prevents formation of the Rango-importin beta complex; Q14974; Rango CFP/YFP FRET sensor + importin beta, 45 min; Potency, µM (titrated, usually from 92.2 µM), without a hit: at the highest dose inhibition of complex formation; hit rate 0.031% among 340,000; AID 540263;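 note: potency is the fitted concentration of half-maximal effect; 0% = DMSO wells and 100% = buffer wells lacking importin beta; nearly all actives have a fitted effect of over 15% in size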
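FRET biosensor (snurportin 1 IBB flanked by EYFP and cerulean), 50 nM, with compound 5 min, then 0.125 microM importin beta in PBS, 1 mM DTT, 0.02% Tween-20, 0.1% BSA. CFP/YFP ratio read after 45 min at room temperature; pre-read flags interference.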
* hit, by the source's call; ? = inconclusive; . = not tested or not shown; ! = a repeat was not active; [ ] = another dose, or the depositor's remark. In the library only some 0.51% were active in any assay of this set; here they are far more common. Unless noted, calls come from the whole dose curve.

Letters: A = CCT modulator; B = Mm-Cpn inhibitor; C = Rango release inh; D = a7 integrin act; E = Rango-impB inh
> O=C(CSc1ccccn1)N1CCN(C(=O)CSc2ccccn2)CC1
  A: 0.8	B: -0.9%	C: -4.4%	D: 5.7%	E: 65.1µM*

> O=C1NC[C@H](CCCCN2CCN(Cc3ccccc3)C(=O)C2=O)N(CCc2ccccc2)C1=O
  A: -0.3	B: .	C: .	D: .	E: .

> Cc1ccc(C(C)C)c(OCC(=O)Nc2cccc(S(=O)(=O)NC3=NCCCCC3)c2)c1
  A: -35.5*	B: 0.1%	C: -7.0%	D: -23.8%	E: 0.3%

> Cc1ccccc1OCC(=O)Nc1cccc(S(=O)(=O)NC2=NCCCCC2)c1
  A: 0.9	B: -7.8%	C: 13.9%	D: 11.5%	E: -5.7%

> Cc1ccc(C(=O)c2cn(Cc3ccc(Cl)cc3)c3nc(C)ccc3c2=O)cc1
  A: .	B: -3.7%	C: .	D: .	E: .

> N#Cc1nc(COc2ccccc2Cl)oc1NCc1cccnc1
  A: -3.5	B: 0.4%	C: 20.6µM*	D: -12.6%[7.66 µM]	E: ?

> COc1ccc(Cl)cc1CC1(C)C(=O)Nc2ccc(S(=O)(=O)NC3CCCCC3)cc21 (stereo not drawn)
  A: 1.1	B: .	C: .	D: .	E: .

> Nc1ccc(O)c(-c2nc3ccccc3s2)c1
  A: -7.6	B: 0.6%	C: 10.3µM*	D: -54.0%	E: ?

> C[n+]1c2n(c3ccccc31)N=C(c1ccc(Cl)cc1)CS2
  A: 1.7	B: 0.8%	C: 31.5%	D: -25.5%	E: 3.7%

> CC1Sc2n(c3ccccc3[n+]2C)N=C1c1ccccc1 (stereo not drawn)
  A: -34.1*	B: 1.9%	C: 1.4%	D: -34.5%	E: 0.6%

Following part.
Letters: A = CCT modulator; B = Mm-Cpn inhibitor; C = Rango release inh; D = a7 integrin act; E = Rango-impB inh
> C=CCn1c(COc2ccc(Cl)cc2)nnc1SCc1ccc(C#N)cc1
  A: -0.1	B: -8.3%	C: -9.6%	D: 11.2µM*	E: -3.1%

> Nc1c(N(CCCO)C(=O)CCCN2C(=O)c3cccc4cccc(c34)C2=O)c(=O)[nH]c(=O)n1Cc1ccccc1
  A: -1.1	B: .	C: 19.7%	D: -4.9%	E: -2.6%

> CN1CCN(c2ccc(-c3cc(O)c4ncccc4c3)cc2)CC1
  A: .	B: 1.3%	C: .	D: .	E: .

> COc1ccc2c(c1OC)C(=O)N(c1cccc(NC(C)=O)c1)C2
  A: -2.2	B: 0.9%	C: 6.9%	D: 25.3%	E: -0.3%

> COc1ccc2c(c1OC)C(=O)N(c1ccc(F)cc1)C2
  A: -40.5*	B: -0.4%	C: 2.1%	D: -11.2%	E: -2.3%

> CCCCC[C@]12Cc3cc(OC)c(OC)cc3[C@H](O1)c1c(cc(C)oc1=O)O2
  A: .	B: 0.1%[15.4 µM]	C: .	D: .	E: .

> CCOC(=O)c1c(NC(=O)c2cccs2)sc2c1CCC2
  A: -32.6*	B: ?	C: -5.9%	D: 15.0%	E: -1.7%

> COc1ccc2c(-c3ccc(OCCN4CCOCC4)cc3)c(-c3ccccc3OC)sc2c1
  A: -1.0	B: 31.6µM*	C: -0.5%	D: 4.2%	E: -1.8%

> COc1ccc2c(-c3ccc(OCCN4CCCCC4)cc3)c(-c3ccccc3OC)sc2c1
  A: 0.0	B: -27.7%	C: -9.3%	D: -4.3%	E: 1.9%

> COc1cc2sc(-c3ccccc3OC)c(-c3ccc(OCCN4CCOCC4)cc3)c2cc1OC
  A: 1.7	B: 44.7µM*	C: 1.9%	D: -12.2%	E: -3.6%

Continued, overlapping the part above by 5 compounds.
Letters: A = CCT modulator; B = Mm-Cpn inhibitor; C = Rango release inh; D = a7 integrin act; E = Rango-impB inh
> CCCCC[C@]12Cc3cc(OC)c(OC)cc3[C@H](O1)c1c(cc(C)oc1=O)O2
  A: .	B: 0.1%[15.4 µM]	C: .	D: .	E: .

> CCOC(=O)c1c(NC(=O)c2cccs2)sc2c1CCC2
  A: -32.6*	B: ?	C: -5.9%	D: 15.0%	E: -1.7%

> COc1ccc2c(-c3ccc(OCCN4CCOCC4)cc3)c(-c3ccccc3OC)sc2c1
  A: -1.0	B: 31.6µM*	C: -0.5%	D: 4.2%	E: -1.8%

> COc1ccc2c(-c3ccc(OCCN4CCCCC4)cc3)c(-c3ccccc3OC)sc2c1
  A: 0.0	B: -27.7%	C: -9.3%	D: -4.3%	E: 1.9%

> COc1cc2sc(-c3ccccc3OC)c(-c3ccc(OCCN4CCOCC4)cc3)c2cc1OC
  A: 1.7	B: 44.7µM*	C: 1.9%	D: -12.2%	E: -3.6%

> CCOc1ccc2oc(C(=O)OCC(=O)NC(=O)NC)c(C)c2c1
  A: 0.1	B: -1.5%	C: ?	D: 7.08µM*	E: -0.1%

> Cc1cc(Br)cn2c(CC(C)(C)C)c(C3CCCCC3)nc12
  A: -2.0	B: .	C: .	D: .	E: .

> Cc1cccn2c(=O)c3cc(C(=O)NC4CCCCC4)n(C)c3nc12
  A: 2.8	B: -2.3%	C: 8.9%	D: 14.1µM*	E: -3.4%

> Cc1ccc(-c2nc3ccc(Cl)cc3n2OC(C)C(=O)O)cc1 (stereo not drawn)
  A: -55.3*	B: 0.4%	C: 6.4%	D: 32.0%	E: -1.8%

> CC(C)n1nnnc1C1c2ccccc2C(=O)N1CCOc1ccccc1 (stereo not drawn)
  A: 1.5	B: .	C: .	D: .	E: .

> CCOC(=O)N1CCN(CCC(=O)Nc2cccc(Br)c2)CC1
  A: -95.6*!	B: -2.5%	C: -9.0%	D: 18.4%	E: -5.7%

> CCOC(=O)N1CCN(CC(=O)Nc2cccc(Br)c2)CC1
  A: 1.9	B: -0.1%	C: -1.8%	D: 1.8%	E: -3.8%

> Cc1cc(NS(=O)(=O)c2ccc(NC(=O)COc3ccc(C#N)cc3)cc2)nc(C)n1
  A: -31.7*	B: -2.7%	C: 5.1%	D: 3.4%	E: -3.2%

> O=c1nc(SCc2c(F)cccc2Cl)nc(-c2ccccc2)[nH]1
  A: -31.0*	B: 0.8%	C: 1.5%	D: ?	E: -2.3%

> COc1ccc(CN2C(=O)CCC2(C)c2nnnn2-c2ccc3c(c2)OCCO3)cc1OC (stereo not drawn)
  A: -1.3	B: .	C: .	D: .	E: .

Remaining list, next part:
Values run as follows: CCT modulator	Mm-Cpn inhibitor	Rango release inh	a7 integrin act	Rango-impB inh
> C=CCCC(=O)NC1CC(C)(C)Cc2c1cnn2-c1cccc(F)c1 (stereo not drawn)
→ 1.6	-0.5%	5.9%	7.4%	6.3%
> CC1(C)Cc2c(cnn2-c2cccc(F)c2)C(NC(=O)CCc2cnccn2)C1 (stereo not drawn)
→ -0.1	-0.5%	1.1%	3.16µM*	-0.6%
> CCCCC(=O)Nc1ccc2c(c1)oc1ccccc12
→ -0.3	2.1%	-8.6%	15.7%	1.3%
> CC(C)CC(=O)Nc1ccc2c(c1)oc1ccccc12
→ -40.3*	1.4%	27.5%	6.5%	0.3%
> CCOC(=O)N1CCN(C(=O)C[C@@H]2C[C@@]3(C(=O)OC)CCCCC=C3N(Cc3ccccc3)C2=O)CC1
→ -0.5	.	.	.	.
> Cc1cccc(N(C)S(=O)(=O)c2nnc(NC(=O)C3CCCCC3)s2)c1
→ .	0.5%	.	.	.
> Cc1ccc(-n2nc3c(=O)n(CC(=O)NCCc4ccc(Cl)cc4)nc(C)c3c2C)cc1
→ -0.4	-0.1%	-7.4%	-35.8%	0.3%
> Cc1ccc(-n2nc3c(=O)n(CC(=O)NCCC4=CCCCC4)nc(C)c3c2C)cc1
→ -77.6*	0.7%	-3.0%	-50.5%	-0.1%
> CC1(C(=O)NS(=O)(=O)c2cccc(OC(F)F)c2)CCN1C(=O)Cc1ccsc1 (stereo not drawn)
→ -1.2	.	.	.	.
> Fc1cccc(Cc2c(-c3ccc(Cl)cc3)nc3ccc(Br)cn23)c1
→ 0.1	.	.	.	.
> COCCNc1nc2cc(-c3cccc(Cl)c3)sc2c(=O)n1C
→ -2.2	.	.	.	.
> CC1(C)CC(=O)C/C(=N\NC(=O)C2CC23CCC3)C1 (stereo not drawn)
→ 0.9	50.1µM*	-8.5%	10.0%	?
> Cc1cc2nnc(SCC(=O)Nc3cc(S(=O)(=O)N4CCOCC4)ccc3Cl)n2c2ccccc12
→ -53.3*	-5.3%	-8.1%	-13.3%	0.9%
> COc1ccc(C(O)c2ncc(-c3ccccc3C)[nH]2)cc1F (stereo not drawn)
→ -0.3	.	.	.	.
> Cc1cc(C)c(SSc2nnnn2-c2ccccc2)c(C)c1
→ -38.0*	.	.	-8.0%	.

Next compounds:
Values run as follows: CCT modulator	Mm-Cpn inhibitor	Rango release inh	a7 integrin act	Rango-impB inh
> CCCCC[C@]12Cc3ccccc3C(O1)c1c(cc(C)oc1=O)O2
→ .	-6.4%[15.4 µM]	.	.	.
> CC(Oc1ccccc1)C(=O)N1CCN=C1SCc1ccccc1 (stereo not drawn)
→ -41.6*	?	-7.6%	-16.5%	-5.6%
> O=C(C1CC1)N1CCN=C1SCc1ccccc1
→ 3.5	1.4%	36.8%	-4.5%	2.9%
> O=C(O)c1ccc2c(c1)C(=O)N([C@H](Cc1ccc(F)cc1)C(=O)O)C2=O
→ .	1.5%	.	.	.
> C[C@@H]1CN([C@H](C)CO)C(=O)c2cc(Br)cnc2O[C@@H]1CN(C)Cc1ccc(F)cc1
→ -3.6	.	.	-11.1%	.
> Cc1cc2c(c(=O)o1)C1O[C@](CCCCN3C(=O)c4ccccc4C3=O)(Cc3cc(C#N)ccc31)O2
→ .	0.5%[15.4 µM]	.	.	.
> O=C(CCN1C(=O)/C(=C/c2ccccc2)SC1=S)Nc1ccccn1
→ 0.5	1.0%	14.6µM*	-32.2%	-1.0%

Compound activity: PubChem BioAssay, National Center for Advancing Translational Sciences (NCATS)
